For the test, the target named is T1, MMP 1 (Homo sapiens, UniProt P03956).
T1 construct: human recombinant fibroblast collagenase (truncated, mw=18,828, WAR, Radnor)
T1 sequence (P03956 100-269 limits assumed): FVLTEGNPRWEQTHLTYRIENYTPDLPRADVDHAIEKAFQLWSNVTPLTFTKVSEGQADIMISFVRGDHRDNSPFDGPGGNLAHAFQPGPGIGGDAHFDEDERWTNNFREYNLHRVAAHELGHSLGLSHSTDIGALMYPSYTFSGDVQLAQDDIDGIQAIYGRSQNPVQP
Put plainly: In vitro collagenase assay (human recombinant fibroblast collagenase). The test is classed as biochemical. The conditions noted are these: read-out: MMP 1 IC 50.

Take `CN1CCC(C(=O)NO)(S(=O)(=O)c2ccc(Oc3ccc(Cl)cc3)cc2)CC1` [Example 249, 4-[4-(4-chloro-phenoxy)-benzenesulfonyl]1-methyl-piperidine-4-carboxylic acid hydroxyamide]: the IC50 was determined as 1410 nM.

The record behind these values is patent US6441023B1 (American Home Products Corporation, priority 1997, dated 2002).
